## Binding of CDR-mutated scFvs to a peptide of the spike HR2 region

Data: MIT Lincoln Laboratory AlphaSeq set, Engelhart et al. 2022, doi:10.1038/s41597-022-01779-4, as distributed in FLAb.

Binding partner: SARS-CoV-2 spike HR2 peptide, sequence PDVDLGDISGINAS.

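The starting antibody came from a phage panning campaign against this peptide. Variants in AAYL51 differ from the parent at up to three CDR positions; double and triple changes were sampled at random. AlphaSeq pools MATa yeast showing the antibodies with MATalpha yeast showing the peptide. After mating in shaken culture at 30 °C for 16 h, diploids were selected and their barcode pairs sequenced. A regression on co-assayed BCL2-family reference pairs converts the normalised counts of each replicate to an apparent Kd. The assay was run in three technical replicates.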

Each scFv is VL, a (GGGGS)3 linker, VH, as in the parent Ab-91, and differs from it in the CDRs of the heavy chain only.
VL: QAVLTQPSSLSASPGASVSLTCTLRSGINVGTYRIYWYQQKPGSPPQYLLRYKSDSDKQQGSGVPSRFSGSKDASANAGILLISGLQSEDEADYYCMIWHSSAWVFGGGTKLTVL
VH: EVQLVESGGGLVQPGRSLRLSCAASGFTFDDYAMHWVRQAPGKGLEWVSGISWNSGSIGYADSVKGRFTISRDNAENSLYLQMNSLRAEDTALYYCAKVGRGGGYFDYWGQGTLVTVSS

Each variant is given by its three heavy chain CDRs, as the data file delimits them; those of the parent are GFTFDDYAMH, GISWNSGSIGYADSVK, VGRGGGYFDY. Numbers give log10(Kd / nM), so 0 is 1 nM and 3 is 1 µM. Smaller is tighter. "ND" means that the variant was in the library but no mating with the target was seen in that replicate; the authors take this as a sign of poor binding, and no number exists. Parent in this assay: reference entry 1.86, copy in this library 0.88. Nonspecific signal, from three strains lacking the peptide, appeared in 21% of pairings of library AAYL51, centred on 4.54 (5% of these signals below 3.26); values are not corrected for it. Also given: how often the same scFv was detected with the empty control strains, with their mean in brackets.

CDR-H1,CDR-H2,CDR-H3,log10 Kd (nM) by replicate,control signals
DFTFDDYAMH,GISWNSGSIGYADSVC,VGRGGGYQDY,ND ND ND,0/9
GITFDDYAMY,GISWNSGSIGYKDSVK,VGRGGGYFDY,ND ND ND,1/9 (4.04)
GYTFDDYAMH,GISWNSGSIGYADSVK,VKRGGGYFDY,ND ND 3.53,3/9 (3.27)
GFTFDDYAMH,GISWNSLEIGYATSVK,VGRGGGYFDY,0.67 0.71 -0.06,1/9 (2.40)
GFTFQQYAMH,GISWNSGSIGYADSVK,VGRGGGYFDY,4.82 4.11 ND,4/9 (5.34)
GFTDDDYAMH,GISWNSGSIGYADSVK,VGRGYGYFDY,ND ND ND,2/9 (4.32)
GFTFQDYAYH,GISWNSGSIPYADSVK,VGRGGGYFDY,ND ND ND,1/9 (4.87)
GATFNDYAMH,GISWNSGSIGYWDSVK,VGRGGGYFDY,ND ND ND,0/9
GFTFDDYAMH,GISWNSMSIRYADSVK,VGRGGGYFCY,4.77 ND ND,3/9 (5.17)
GFSFDDYAMH,GISWKSGSIGYADSVW,VGRGGGYFDY,ND ND ND,2/9 (4.42)
GFTFDDYAMH,GMSWNSGSIGYADSVK,QGRGGGYFDE,ND ND ND,0/9
DFTFDDYAMH,GIYWLSGSIGYADSVK,VGRGGGYFDY,ND ND ND,1/9 (3.41)
GFTFDDYAMH,GISWNSGSIGYADSRK,VGSGGGYFKY,4.64 ND ND,1/9 (3.35)
GFSFDDYAMH,GISWNSGSIGYADSVK,VGRGGGYFDK,1.26 1.26 0.96,5/9 (5.22)
GHTFDDYAMH,GISWNSGSIGYADSVK,VGRCGGYFWY,ND 4.89 ND,1/9 (4.92)
TFTFDDYAQH,GISWNSGSIGYADSVK,VGRGGDYFDY,3.86 ND ND,1/9 (5.58)
GFTFDDYAMH,GILWNSGSIGYADSVK,DGRGGGVFDY,ND ND ND,2/9 (3.63)
GFTFPDYAMH,GISWPSGSIGYADSVK,VGRGGPYFDY,5.86 4.77 5.30,5/9 (5.11)
GFTFWDYAMH,GISWNSGSIGYRDSVK,VGRGRGYFDY,3.11 2.89 2.81,2/9 (5.26)
IFTFDDYAMH,GISWNSGWIGYADGVK,VGRGGGYFDY,ND 4.66 ND,2/9 (3.35)
GFTFDDYAMH,GISWNSGSIGYPDSMA,VGRGGGYFDY,ND 4.70 ND,1/9 (3.55)
GDTFDDYAMH,GISWNSGSIGYADGVK,VGRGYGYFDY,ND ND ND,0/9
TFTFDDYAMH,GISWNSLSIGAADSVK,VGRGGGYFDY,4.44 5.57 5.29,3/9 (5.00)
GFTIDDYAMH,GISCNSGSIGYADSVK,VGRGGGYFDP,4.40 ND 4.48,3/9 (4.65)
GFTFDDYAMS,GISWNSGSIGYADSRK,VGRGGGYFDY,ND ND ND,0/9
GFTFDTYAMH,GIHWNSGSIGYADSVK,VGRGGGYFDY,4.92 4.63 ND,3/9 (4.76)
GFTFDDLAMH,GISWSSGSIGYAMSVK,VGRGGGYFDY,ND ND ND,0/9
GFTFDDNAMH,GISWLSGSIGYSDSVK,VGRGGGYFDY,4.42 6.03 4.13,2/9 (3.85)
YFTFDDYAMH,GRSWNSGSIGYADSVK,VGRGGYYFDY,ND ND ND,0/9
GFTFDDYAMH,GISWNMGSIGYAWSVK,VGRGGGYFQY,ND 4.03 ND,3/9 (4.40)
GFTFDDYYMH,GISWNSGSIGYADSVK,VGRGSGYNDY,ND ND ND,3/9 (4.09)
GFTFDDYLMH,GISWNSGSMGYADSVK,VGRGGGYFDY,ND ND ND,2/9 (3.84)
GFTFDTYAMH,GISWNSGSIGYADSVP,VGRGGGYFDV,ND ND ND,0/9
GFTFDDYAMH,GPSWCSGSIGYADSGK,VGRGGGYFDY,ND ND ND,0/9
GFTFDDYAME,GIFWNSGSIGYADSVK,VGRGGGYFDY,ND 3.93 ND,2/9 (3.95)
GFTWDDWAMH,GISWNSGSIGYRDSVK,VGRGGGYFDY,4.76 ND ND,0/9
GFTFDDYAMH,GISWNSGSIGYADSVK,VMRGGNYFDP,3.90 ND ND,3/9 (4.80)
GFTFDDYAMH,GISWVSGSIDYADSVK,VGEGGGYFDY,ND ND ND,1/9 (3.30)
QWTFDDYAMH,GISWNSGSIGYADSVH,VGRGGGYFDY,5.19 ND 5.90,6/9 (5.04)
GFTFDDYAMH,GISWNEGSIGYAQSVK,VGRGGGYFDY,3.33 4.84 3.36,4/9 (3.96)
QFTFDDYAMH,GVSWNSGSIGYADSVD,VGRGGGYFDY,ND ND ND,0/9
GFTFDDYAMH,GISWNSPSIGYADSMP,VGRGGGYFDY,3.84 2.66 ND,1/9 (2.95)
GFQFRDYAMH,GISWNSGSIGYADSVD,VGRGGGYFDY,0.82 0.71 0.13,0/9
GFTFDDYAMH,GISYNSGSIGYADSVK,VGRGGGYFDY,ND ND ND,0/9
GFTFDDYAMW,GFSWNSGSIGYADSVK,VGRGNGYFDY,ND ND ND,0/9
GFTFDDYTMH,GISDNSGSIGYADSVK,VGRGGGYFDY,ND 5.71 ND,1/9 (5.12)

Repeated from above, the 6 best binders with a signal in all replicates:

CDR-H1,CDR-H2,CDR-H3,log10 Kd (nM) by replicate,control signals
GFTFDDYAMH,GISWNSLEIGYATSVK,VGRGGGYFDY,0.67 0.71 -0.06,1/9 (2.40)
GFQFRDYAMH,GISWNSGSIGYADSVD,VGRGGGYFDY,0.82 0.71 0.13,0/9
GFSFDDYAMH,GISWNSGSIGYADSVK,VGRGGGYFDK,1.26 1.26 0.96,5/9 (5.22)
GFTFWDYAMH,GISWNSGSIGYRDSVK,VGRGRGYFDY,3.11 2.89 2.81,2/9 (5.26)
GFTFDDYAMH,GISWNEGSIGYAQSVK,VGRGGGYFDY,3.33 4.84 3.36,4/9 (3.96)
GFTFDDNAMH,GISWLSGSIGYSDSVK,VGRGGGYFDY,4.42 6.03 4.13,2/9 (3.85)